From patent EP4834897A1, “COMPOUNDS WITH TWO AZAHETEROCYCLES SUBSTITUTED ISOINDOLINONE SKELETON AND USES THEREOF” (dated 2026)

Sequences of proteins named here, by UniProt entry; tags and fusion partners are left off.
UniProt Q13422, whole entry: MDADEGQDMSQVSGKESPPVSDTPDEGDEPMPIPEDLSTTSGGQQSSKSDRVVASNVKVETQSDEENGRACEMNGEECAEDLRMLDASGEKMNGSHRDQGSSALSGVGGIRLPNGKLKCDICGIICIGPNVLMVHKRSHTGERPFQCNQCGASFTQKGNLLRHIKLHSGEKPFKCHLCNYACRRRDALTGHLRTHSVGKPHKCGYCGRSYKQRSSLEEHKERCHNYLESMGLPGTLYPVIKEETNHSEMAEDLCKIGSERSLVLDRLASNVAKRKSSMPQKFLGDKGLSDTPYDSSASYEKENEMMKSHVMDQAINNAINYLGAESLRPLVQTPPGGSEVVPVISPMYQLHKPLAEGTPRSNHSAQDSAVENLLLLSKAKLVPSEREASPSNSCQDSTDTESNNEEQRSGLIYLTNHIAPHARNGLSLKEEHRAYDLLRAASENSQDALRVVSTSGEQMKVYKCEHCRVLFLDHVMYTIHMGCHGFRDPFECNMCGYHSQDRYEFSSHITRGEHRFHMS
UniProt Q96SW2, whole entry: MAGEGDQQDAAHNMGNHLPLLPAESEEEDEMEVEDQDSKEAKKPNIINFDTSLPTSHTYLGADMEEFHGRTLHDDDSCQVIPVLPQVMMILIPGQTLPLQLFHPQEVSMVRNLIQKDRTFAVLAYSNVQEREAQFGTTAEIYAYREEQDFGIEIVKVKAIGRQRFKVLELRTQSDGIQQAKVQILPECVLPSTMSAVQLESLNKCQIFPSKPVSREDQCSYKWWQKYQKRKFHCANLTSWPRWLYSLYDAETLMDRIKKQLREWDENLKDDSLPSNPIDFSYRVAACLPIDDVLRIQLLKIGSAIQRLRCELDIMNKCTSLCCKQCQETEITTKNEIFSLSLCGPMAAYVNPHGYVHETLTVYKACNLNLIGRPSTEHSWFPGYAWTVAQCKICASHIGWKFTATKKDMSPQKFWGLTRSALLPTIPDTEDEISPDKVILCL
UniProt P15170, whole entry: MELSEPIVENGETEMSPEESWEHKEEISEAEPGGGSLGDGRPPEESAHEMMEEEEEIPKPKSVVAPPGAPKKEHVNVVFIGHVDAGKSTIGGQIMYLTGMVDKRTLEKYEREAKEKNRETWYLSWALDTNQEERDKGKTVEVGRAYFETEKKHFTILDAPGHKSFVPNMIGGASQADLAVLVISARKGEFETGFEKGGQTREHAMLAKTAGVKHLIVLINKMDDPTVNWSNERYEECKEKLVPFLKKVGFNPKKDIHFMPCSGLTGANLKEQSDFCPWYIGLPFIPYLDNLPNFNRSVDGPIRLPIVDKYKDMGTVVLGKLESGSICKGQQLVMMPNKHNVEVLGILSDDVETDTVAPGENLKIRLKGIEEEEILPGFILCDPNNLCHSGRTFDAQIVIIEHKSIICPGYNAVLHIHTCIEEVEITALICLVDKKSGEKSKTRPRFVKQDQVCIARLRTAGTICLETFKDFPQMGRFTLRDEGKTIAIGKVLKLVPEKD
UniProt Q9UKT9, whole entry: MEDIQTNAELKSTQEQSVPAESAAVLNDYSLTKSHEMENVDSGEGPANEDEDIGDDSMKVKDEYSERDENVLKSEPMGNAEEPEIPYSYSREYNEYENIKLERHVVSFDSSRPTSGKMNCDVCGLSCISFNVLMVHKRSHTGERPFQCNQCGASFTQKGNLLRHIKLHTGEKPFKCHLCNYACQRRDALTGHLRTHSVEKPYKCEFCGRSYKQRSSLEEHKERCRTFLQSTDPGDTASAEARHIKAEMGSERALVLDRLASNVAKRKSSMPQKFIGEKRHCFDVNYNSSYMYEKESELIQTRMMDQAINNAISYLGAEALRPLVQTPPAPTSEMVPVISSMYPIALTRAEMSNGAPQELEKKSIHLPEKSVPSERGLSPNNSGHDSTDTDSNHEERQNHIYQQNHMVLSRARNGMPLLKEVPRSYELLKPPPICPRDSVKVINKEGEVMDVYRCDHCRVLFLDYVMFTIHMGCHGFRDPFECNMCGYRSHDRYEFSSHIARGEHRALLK
UniProt P48729, whole entry: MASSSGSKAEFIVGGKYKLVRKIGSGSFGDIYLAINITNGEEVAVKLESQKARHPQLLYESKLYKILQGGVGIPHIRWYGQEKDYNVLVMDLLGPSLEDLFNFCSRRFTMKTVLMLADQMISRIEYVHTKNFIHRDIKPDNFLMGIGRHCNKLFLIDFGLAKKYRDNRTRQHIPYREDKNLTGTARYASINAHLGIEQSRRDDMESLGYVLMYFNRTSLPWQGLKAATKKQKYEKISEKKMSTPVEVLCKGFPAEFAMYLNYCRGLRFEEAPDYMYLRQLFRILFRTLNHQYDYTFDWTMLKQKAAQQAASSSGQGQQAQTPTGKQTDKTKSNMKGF
UniProt Q9UKS7, whole entry: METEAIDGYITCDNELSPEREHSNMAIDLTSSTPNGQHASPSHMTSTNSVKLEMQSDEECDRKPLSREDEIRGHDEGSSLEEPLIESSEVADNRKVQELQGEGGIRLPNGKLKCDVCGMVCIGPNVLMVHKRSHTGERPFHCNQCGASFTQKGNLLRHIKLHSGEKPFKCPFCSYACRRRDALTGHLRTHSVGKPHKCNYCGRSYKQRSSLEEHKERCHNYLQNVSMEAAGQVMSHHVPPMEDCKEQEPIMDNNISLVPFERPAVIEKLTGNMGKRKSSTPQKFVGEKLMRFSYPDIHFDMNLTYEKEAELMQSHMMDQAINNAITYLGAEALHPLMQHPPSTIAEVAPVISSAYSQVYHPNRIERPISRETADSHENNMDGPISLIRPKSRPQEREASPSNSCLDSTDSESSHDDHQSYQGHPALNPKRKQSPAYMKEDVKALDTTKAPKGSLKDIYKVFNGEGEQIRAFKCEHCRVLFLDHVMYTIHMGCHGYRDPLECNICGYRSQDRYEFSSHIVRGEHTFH
UniProt P30291, whole entry: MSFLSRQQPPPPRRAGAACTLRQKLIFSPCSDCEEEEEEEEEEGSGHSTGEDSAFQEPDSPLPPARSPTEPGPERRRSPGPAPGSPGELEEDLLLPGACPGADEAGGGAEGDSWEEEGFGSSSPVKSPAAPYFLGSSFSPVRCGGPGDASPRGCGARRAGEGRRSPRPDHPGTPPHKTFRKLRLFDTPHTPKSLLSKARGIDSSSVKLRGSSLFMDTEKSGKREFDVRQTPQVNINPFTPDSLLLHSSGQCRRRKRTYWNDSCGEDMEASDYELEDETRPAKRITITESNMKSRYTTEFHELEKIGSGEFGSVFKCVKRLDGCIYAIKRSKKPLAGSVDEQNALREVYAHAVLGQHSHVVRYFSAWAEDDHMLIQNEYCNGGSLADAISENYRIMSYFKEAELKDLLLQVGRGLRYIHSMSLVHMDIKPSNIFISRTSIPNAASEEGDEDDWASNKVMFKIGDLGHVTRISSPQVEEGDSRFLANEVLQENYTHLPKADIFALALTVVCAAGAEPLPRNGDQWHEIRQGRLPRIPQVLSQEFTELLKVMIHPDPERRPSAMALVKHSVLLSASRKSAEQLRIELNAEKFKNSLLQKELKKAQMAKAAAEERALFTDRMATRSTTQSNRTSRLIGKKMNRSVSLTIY
UniProt Q16531, whole entry partner: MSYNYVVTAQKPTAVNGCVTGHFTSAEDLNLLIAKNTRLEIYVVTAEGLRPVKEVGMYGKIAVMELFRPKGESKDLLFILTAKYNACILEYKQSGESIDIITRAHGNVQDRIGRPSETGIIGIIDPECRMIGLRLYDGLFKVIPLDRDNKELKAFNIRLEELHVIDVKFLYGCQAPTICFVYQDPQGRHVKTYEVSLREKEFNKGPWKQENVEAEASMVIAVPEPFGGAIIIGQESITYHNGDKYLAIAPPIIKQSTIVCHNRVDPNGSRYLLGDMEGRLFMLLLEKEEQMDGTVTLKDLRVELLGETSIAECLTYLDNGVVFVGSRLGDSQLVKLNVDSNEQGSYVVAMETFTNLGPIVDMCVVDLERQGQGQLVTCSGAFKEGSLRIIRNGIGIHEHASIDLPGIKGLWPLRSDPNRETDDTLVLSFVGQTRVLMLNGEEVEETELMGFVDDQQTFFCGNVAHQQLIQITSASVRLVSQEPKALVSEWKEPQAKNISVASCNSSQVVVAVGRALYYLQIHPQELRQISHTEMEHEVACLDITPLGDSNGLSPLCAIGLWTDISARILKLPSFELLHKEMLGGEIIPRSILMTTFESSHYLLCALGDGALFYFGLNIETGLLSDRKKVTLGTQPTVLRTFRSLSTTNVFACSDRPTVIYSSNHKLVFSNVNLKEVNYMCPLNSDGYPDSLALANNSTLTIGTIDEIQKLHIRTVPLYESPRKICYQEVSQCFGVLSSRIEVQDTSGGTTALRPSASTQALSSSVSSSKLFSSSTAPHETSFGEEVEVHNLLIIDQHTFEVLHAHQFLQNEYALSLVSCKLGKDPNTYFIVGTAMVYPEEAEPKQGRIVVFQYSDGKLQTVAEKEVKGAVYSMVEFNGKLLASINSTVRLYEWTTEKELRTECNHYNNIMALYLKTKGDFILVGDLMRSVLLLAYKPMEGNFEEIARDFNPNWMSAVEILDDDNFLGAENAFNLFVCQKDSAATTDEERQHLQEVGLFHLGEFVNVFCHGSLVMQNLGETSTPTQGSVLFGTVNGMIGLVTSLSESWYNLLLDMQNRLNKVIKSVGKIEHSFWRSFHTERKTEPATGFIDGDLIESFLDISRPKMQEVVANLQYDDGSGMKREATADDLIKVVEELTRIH

The molecules below were run against IKZF1 (Homo sapiens, UniProt Q13422+Q96SW2) (assay: Western blot assay of substrate protein degradation in hPBMCs). Conditions: 24 hours treatment, compounds at 50 nM and 500 nM (concentration behind the class not stated).
O=C1CCC(N2Cc3cc(CN4CCC(N5CC=C(c6cccc(Cl)c6Cl)CC5)C(F)(F)C4)cc(F)c3C2=O)C(=O)N1 (stereo not shown) was tested, and the “substrate protein remaining % (IKZF 1)” value was “B (80%< substrate protein remaining %≤ 100%)”.
In the case of O=C1CCC(N2Cc3cccc(C(=O)N4CCC(N5CC=C(c6cccc(Cl)c6Cl)CC5)C(F)(F)C4)c3C2=O)C(=O)N1 (stereo not shown), the “substrate protein remaining % (IKZF 1)” value is reported as “A (0% ≤ substrate protein remaining % ≤ 80%)”.
O=C1CCC(N2Cc3cc(C(=O)N4CCC(N5CC=C(c6cccc(Cl)c6Cl)CC5)C(F)(F)C4)ccc3C2=O)C(=O)N1 (stereo not shown) was tested, and the “substrate protein remaining % (IKZF 1)” value was “A (0% ≤ substrate protein remaining % ≤ 80%)”.
With O=C1CCC(N2Cc3cc(C(=O)N4CCC(N5CCN(C(c6ccccc6)c6ccccc6)CC5)CC4)c(F)cc3C2=O)C(=O)N1 (stereo not shown) the “substrate protein remaining % (IKZF 1)” value was “B (80%< substrate protein remaining %≤ 100%)”.

What follows are molecules tested against GSPT1 (Homo sapiens, UniProt P15170+Q96SW2) in the same assay as above. Conditions: 24 hours treatment, compounds at 50 nM and 500 nM (concentration behind the class not stated).
With O=C1CCC(N2Cc3cc(CN4CCC(N5CC=C(c6cccc(Cl)c6Cl)CC5)C(F)(F)C4)cc(F)c3C2=O)C(=O)N1 (stereo not shown) the “substrate protein remaining % (GSPT1)” value was “A (0% ≤ substrate protein remaining % ≤ 80%)”.
For O=C1CCC(N2Cc3cccc(C(=O)N4CCC(N5CC=C(c6cccc(Cl)c6Cl)CC5)C(F)(F)C4)c3C2=O)C(=O)N1 (stereo not shown), the “substrate protein remaining % (GSPT1)” value was “A (0% ≤ substrate protein remaining % ≤ 80%)”.
With O=C1CCC(N2Cc3cc(C(=O)N4CCC(N5CC=C(c6cccc(Cl)c6Cl)CC5)C(F)(F)C4)ccc3C2=O)C(=O)N1 (stereo not shown) the “substrate protein remaining % (GSPT1)” value was “A (0% ≤ substrate protein remaining % ≤ 80%)”.
For O=C1CCC(N2Cc3cc(C(=O)N4CCC(N5CCN(C(c6ccccc6)c6ccccc6)CC5)CC4)c(F)cc3C2=O)C(=O)N1 (stereo not shown), the “substrate protein remaining % (GSPT1)” value was “A (0% ≤ substrate protein remaining % ≤ 80%)”.

What follows are molecules tested against IKZF3 (Homo sapiens, UniProt Q96SW2+Q9UKT9) in the same assay as above. Conditions: 24 hours treatment, compounds at 50 nM and 500 nM (concentration behind the class not stated).
In the case of O=C1CCC(N2Cc3cc(CN4CCC(N5CC=C(c6cccc(Cl)c6Cl)CC5)C(F)(F)C4)cc(F)c3C2=O)C(=O)N1 (stereo not shown), the “substrate protein remaining % (IKZF3)” value is reported as “B (80%< substrate protein remaining %≤ 100%)”.
O=C1CCC(N2Cc3cccc(C(=O)N4CCC(N5CC=C(c6cccc(Cl)c6Cl)CC5)C(F)(F)C4)c3C2=O)C(=O)N1 (stereo not shown) was tested, and the “substrate protein remaining % (IKZF3)” value was “A (0% ≤ substrate protein remaining % ≤ 80%)”.
In the case of O=C1CCC(N2Cc3cc(C(=O)N4CCC(N5CC=C(c6cccc(Cl)c6Cl)CC5)C(F)(F)C4)ccc3C2=O)C(=O)N1 (stereo not shown), the “substrate protein remaining % (IKZF3)” value is reported as “B (80%< substrate protein remaining %≤ 100%)”.
In the case of O=C1CCC(N2Cc3cc(C(=O)N4CCC(N5CCN(C(c6ccccc6)c6ccccc6)CC5)CC4)c(F)cc3C2=O)C(=O)N1 (stereo not shown), the “substrate protein remaining % (IKZF3)” value is reported as “B (80%< substrate protein remaining %≤ 100%)”.

Each molecule was assayed against CK1α (Homo sapiens, UniProt P48729+Q96SW2) in the same assay as above. Conditions: 24 hours treatment, compounds at 50 nM and 500 nM (concentration behind the class not stated).
In the case of O=C1CCC(N2Cc3cc(CN4CCC(N5CC=C(c6cccc(Cl)c6Cl)CC5)C(F)(F)C4)cc(F)c3C2=O)C(=O)N1 (stereo not shown), the “substrate protein remaining % (CK1a)” value is reported as “B (80%< substrate protein remaining %≤ 100%)”.
In the case of O=C1CCC(N2Cc3cccc(C(=O)N4CCC(N5CC=C(c6cccc(Cl)c6Cl)CC5)C(F)(F)C4)c3C2=O)C(=O)N1 (stereo not shown), the “substrate protein remaining % (CK1a)” value is reported as “A (0% ≤ substrate protein remaining % ≤ 80%)”.
For O=C1CCC(N2Cc3cc(C(=O)N4CCC(N5CC=C(c6cccc(Cl)c6Cl)CC5)C(F)(F)C4)ccc3C2=O)C(=O)N1 (stereo not shown), the “substrate protein remaining % (CK1a)” value was “A (0% ≤ substrate protein remaining % ≤ 80%)”.
In the case of O=C1CCC(N2Cc3cc(C(=O)N4CCC(N5CCN(C(c6ccccc6)c6ccccc6)CC5)CC4)c(F)cc3C2=O)C(=O)N1 (stereo not shown), the “substrate protein remaining % (CK1a)” value is reported as “B (80%< substrate protein remaining %≤ 100%)”.

Each molecule was assayed against IKZF2 (Homo sapiens, UniProt Q96SW2+Q9UKS7) in the same assay as above. Conditions: 24 hours treatment, compounds at 50 nM and 500 nM (concentration behind the class not stated).
For O=C1CCC(N2Cc3cc(CN4CCC(N5CC=C(c6cccc(Cl)c6Cl)CC5)C(F)(F)C4)cc(F)c3C2=O)C(=O)N1 (stereo not shown), the “substrate protein remaining % (IKZF2)” value was “B (80%< substrate protein remaining %≤ 100%)”.
O=C1CCC(N2Cc3cccc(C(=O)N4CCC(N5CC=C(c6cccc(Cl)c6Cl)CC5)C(F)(F)C4)c3C2=O)C(=O)N1 (stereo not shown) was tested, and the “substrate protein remaining % (IKZF2)” value was “A (0% ≤ substrate protein remaining % ≤ 80%)”.
In the case of O=C1CCC(N2Cc3cc(C(=O)N4CCC(N5CC=C(c6cccc(Cl)c6Cl)CC5)C(F)(F)C4)ccc3C2=O)C(=O)N1 (stereo not shown), the “substrate protein remaining % (IKZF2)” value is reported as “A (0% ≤ substrate protein remaining % ≤ 80%)”.
O=C1CCC(N2Cc3cc(C(=O)N4CCC(N5CCN(C(c6ccccc6)c6ccccc6)CC5)CC4)c(F)cc3C2=O)C(=O)N1 (stereo not shown) was tested, and the “substrate protein remaining % (IKZF2)” value was “B (80%< substrate protein remaining %≤ 100%)”.

Each molecule was assayed against WEE1 (Homo sapiens, UniProt P30291+Q96SW2) in the same assay as above. Conditions: 24 hours treatment, compounds at 50 nM and 500 nM (concentration behind the class not stated).
O=C1CCC(N2Cc3cc(CN4CCC(N5CC=C(c6cccc(Cl)c6Cl)CC5)C(F)(F)C4)cc(F)c3C2=O)C(=O)N1 (stereo not shown) was tested, and the “substrate protein remaining % (WEE1)” value was “B (80%< substrate protein remaining %≤ 100%)”.
O=C1CCC(N2Cc3cccc(C(=O)N4CCC(N5CC=C(c6cccc(Cl)c6Cl)CC5)C(F)(F)C4)c3C2=O)C(=O)N1 (stereo not shown) was tested, and the “substrate protein remaining % (WEE1)” value was “A (0% ≤ substrate protein remaining % ≤ 80%)”.
For O=C1CCC(N2Cc3cc(C(=O)N4CCC(N5CC=C(c6cccc(Cl)c6Cl)CC5)C(F)(F)C4)ccc3C2=O)C(=O)N1 (stereo not shown), the “substrate protein remaining % (WEE1)” value was “A (0% ≤ substrate protein remaining % ≤ 80%)”.
In the case of O=C1CCC(N2Cc3cc(C(=O)N4CCC(N5CCN(C(c6ccccc6)c6ccccc6)CC5)CC4)c(F)cc3C2=O)C(=O)N1 (stereo not shown), the “substrate protein remaining % (WEE1)” value is reported as “B (80%< substrate protein remaining %≤ 100%)”.

The molecules below were run on Human myeloid monocytic leukemia cell (MV-4-11) (assay: Tumor cell proliferation inhibition (cell viability assay)). Conditions: MV-4-11 cells; 10 nM; 96 hours.
O=C1CCC(N2Cc3cc(CN4CCC(N5CC=C(c6cccc(Cl)c6Cl)CC5)C(F)(F)C4)cc(F)c3C2=O)C(=O)N1 (stereo not shown) was tested, and the “Inhibition Rate at 10 nM (%)” value was 1a7 (50% ≤ 1a7 < 60%).
In the case of O=C1CCC(N2Cc3cccc(C(=O)N4CCC(N5CC=C(c6cccc(Cl)c6Cl)CC5)C(F)(F)C4)c3C2=O)C(=O)N1 (stereo not shown), the “Inhibition Rate at 10 nM (%)” value is reported as 1a7 (50% ≤ 1a7 < 60%).
O=C1CCC(N2Cc3cc(C(=O)N4CCC(N5CC=C(c6cccc(Cl)c6Cl)CC5)C(F)(F)C4)ccc3C2=O)C(=O)N1 (stereo not shown) was tested, and the “Inhibition Rate at 10 nM (%)” value was 1a4 (20% ≤ 1a4 < 30%).
With O=C1CCC(N2Cc3cc(C(=O)N4CCC(N5CCN(C(c6ccccc6)c6ccccc6)CC5)CC4)c(F)cc3C2=O)C(=O)N1 (stereo not shown) the “Inhibition Rate at 10 nM (%)” value was 1a7 (50% ≤ 1a7 < 60%).

Same assay, conditions: MV-4-11 cells; 500 nM; 96 hours
In the case of O=C1CCC(N2Cc3cc(CN4CCC(N5CC=C(c6cccc(Cl)c6Cl)CC5)C(F)(F)C4)cc(F)c3C2=O)C(=O)N1 (stereo not shown), the “Inhibition Rate at 500 nM (%)” value is reported as 1a7 (50% ≤ 1a7 < 60%).
With O=C1CCC(N2Cc3cccc(C(=O)N4CCC(N5CC=C(c6cccc(Cl)c6Cl)CC5)C(F)(F)C4)c3C2=O)C(=O)N1 (stereo not shown) the “Inhibition Rate at 500 nM (%)” value was 1a9 (70% ≤ 1a9 < 80%).
O=C1CCC(N2Cc3cc(C(=O)N4CCC(N5CC=C(c6cccc(Cl)c6Cl)CC5)C(F)(F)C4)ccc3C2=O)C(=O)N1 (stereo not shown) was tested, and the “Inhibition Rate at 500 nM (%)” value was 1a7 (50% ≤ 1a7 < 60%).
In the case of O=C1CCC(N2Cc3cc(C(=O)N4CCC(N5CCN(C(c6ccccc6)c6ccccc6)CC5)CC4)c(F)cc3C2=O)C(=O)N1 (stereo not shown), the “Inhibition Rate at 500 nM (%)” value is reported as 1a10 (80% ≤ 1a10 < 100%).

Each molecule was assayed against CRBN (Homo sapiens, UniProt Q96SW2) (assay: CRBN binding affinity by HTRF (CEREBLON BINDING kit)). Conditions: CRBN binding, HTRF, compound at 0.5 µM.
In the case of O=C1CCC(N2Cc3cc(CN4CCC(N5CC=C(c6cccc(Cl)c6Cl)CC5)C(F)(F)C4)cc(F)c3C2=O)C(=O)N1 (stereo not shown), the “Inhibition Rate at 0.5 µM (%)” value is reported as “a4 (40% < a4 ≤ 53%)”.
O=C1CCC(N2Cc3cccc(C(=O)N4CCC(N5CC=C(c6cccc(Cl)c6Cl)CC5)C(F)(F)C4)c3C2=O)C(=O)N1 (stereo not shown) was tested, and the “Inhibition Rate at 0.5 µM (%)” value was “a3 (30% < a3 ≤ 40%)”.
O=C1CCC(N2Cc3cc(C(=O)N4CCC(N5CC=C(c6cccc(Cl)c6Cl)CC5)C(F)(F)C4)ccc3C2=O)C(=O)N1 (stereo not shown) was tested, and the “Inhibition Rate at 0.5 µM (%)” value was “a3 (30% < a3 ≤ 40%)”.
For O=C1CCC(N2Cc3cc(C(=O)N4CCC(N5CCN(C(c6ccccc6)c6ccccc6)CC5)CC4)c(F)cc3C2=O)C(=O)N1 (stereo not shown), the “Inhibition Rate at 0.5 µM (%)” value was “a4 (40% < a4 ≤ 53%)”.

Same assay, conditions: CRBN binding, HTRF, compound at 2 µM
For O=C1CCC(N2Cc3cc(CN4CCC(N5CC=C(c6cccc(Cl)c6Cl)CC5)C(F)(F)C4)cc(F)c3C2=O)C(=O)N1 (stereo not shown), the “Inhibition Rate at 2 µM (%)” value was “a8 (80% < a8 ≤100%)”.
For O=C1CCC(N2Cc3cccc(C(=O)N4CCC(N5CC=C(c6cccc(Cl)c6Cl)CC5)C(F)(F)C4)c3C2=O)C(=O)N1 (stereo not shown), the “Inhibition Rate at 2 µM (%)” value was “a6 (60% < a6 ≤ 70%)”.
O=C1CCC(N2Cc3cc(C(=O)N4CCC(N5CC=C(c6cccc(Cl)c6Cl)CC5)C(F)(F)C4)ccc3C2=O)C(=O)N1 (stereo not shown) was tested, and the “Inhibition Rate at 2 µM (%)” value was “a6 (60% < a6 ≤ 70%)”.
For O=C1CCC(N2Cc3cc(C(=O)N4CCC(N5CCN(C(c6ccccc6)c6ccccc6)CC5)CC4)c(F)cc3C2=O)C(=O)N1 (stereo not shown), the “Inhibition Rate at 2 µM (%)” value was “a6 (60% < a6 ≤ 70%)”.
